From publication PMC6287599, “2,6-Bis(2-Benzimidazolyl)Pyridine (BBP) Is a Potent and Selective Inhibitor of Small Conductance Calcium-Activated Potassium (SK) Channels” (Frontiers in Pharmacology, 2018)

Target: T1, hIK (Homo sapiens, UniProt O15554)
T1 construct: expressed in transfected cells; host or cells: HEK293 (transient, co-transfected with eGFP)
Experiment: Manual whole cell patch clamp, HEK293 transiently transfected with hIK
Assay type: cell-based
Details: TRAM-34 1 μM

SMILES: Clc1ccccc1C(c1ccccc1)(c1ccccc1)n1cccn1 [TRAM-34, 1-[(2-chlorophenyl)diphenylmethyl]-1H-pyrazole, reference compound]
- Effect on IK current (reference blocker): completely inhibited
